Laboratory results taken from patent USRE37410E, “Controlled local delivery of chemotherapeutic agents for treating solid tumors” (priority 1999, dated 2001).

Assays:
rat glioma cells = assay: Brain BCNU concentration relative to 90% lethal dose against rat glioma cells; format: cell-based; conditions: 8 mM brain concentration vs LD90 in rat glioma cells, preliminary studies
[1] = PCPP-SA (20:80), initially; cited from earlier work

For `O=NN(CCCl)C(=O)NCCCl` [BCNU, 1,3-bis(2-chloroethyl)-1-nitrosourea], the “brain concentration relative to 90% lethal dose in vitro” value (rat glioma cells) is listed as “two orders of magnitude higher” and the “distance of distribution from the implant site” value [1] is listed as “up to 12 mm”.
